Key:
DRB1*0401 = DRB1*0401 (Homo sapiens, UniProt P01903+P01911, A100K/A169T/F76Y/I96L/K127E/L162R/M171V/N62H/P40V/Q125Y/R42H/S133A/S149N/S66Y/V115G/V209L/W38E); assay: biochemical
DRB1*0101 = DRB1*0101 (Homo sapiens, UniProt P01903+P01911, A100R/D57E/F55L/F60I/F76Y/I96L/L162R/M171V/P40L/Q125E/R42F/V115G/Y59C); conditions: read-out: DRB1*0101 IC50; competition with biotin-Flu-HA 306–318 at 0.1 μM, 24 h, 37°C; NB = non-binder
DRB1*0701 = DRB1*0701 (Homo sapiens, UniProt P01903+P01911, A100R/A102G/A103Q/D57E/D86V/E43K/F76Y/K127E/L162R/M171V/P40G/Q125H/Q99D/R33Q/R42Y/R54Q/S133A/S66F/T210M/V115G/Y107V/Y59L/Y89S); assay: biochemical
DRB1*1501 = biological target: T1, DRB1*1501 (Homo sapiens, UniProt P01903+P01911); assay: competition-based HLA binding assay; conditions: competition with biotin-MBP 84–102 at 0.5 μM, 24 h, 37°C; NB = non-binder
T1 construct: gift: William Kwok, Benaroya Institute, Seattle

SMILES: CC[C@H](C)[C@H](NC(=O)[C@H](CCCCN)NC(=O)[C@H](Cc1ccc(O)cc1)NC(=O)[C@H](CCCCN)NC(=O)[C@H](CCCCN)NC(=O)[C@@H](N)CS)C(=O)N[C@@H](Cc1c[nH]c2ccccc12)C(=O)N[C@@H](CCSC)C(=O)N[C@@H](Cc1c[nH]cn1)C(=O)N[C@H](C(=O)N[C@@H](CC(=O)O)C(=O)N[C@@H](C)C(=O)N[C@@H](C)C(=O)N[C@@H](Cc1c[nH]c2ccccc12)C(=O)NCC(=O)NCC(=O)NCC(=O)N[C@@H](CC(C)C)C(=O)N[C@@H](CC(C)C)C(=O)O)C(C)C [GAD65_354–372]
- IC50 (DRB1*0401): 6.4 µM
- IC50 (DRB1*0101): > 50 µM
- IC50 (DRB1*0701): < 5 µM
- IC50 (DRB1*1501): > 50 µM
